Earlier results in patent US20010046957A1, “Method for treating hepatitis C” (priority 1999, published 2001).

Molecular target: type 2 isoform of IMPDH (Homo sapiens, UniProt P12268)
Details: isoform expressed in activated T and B lymphocytes

For Mycophenolic acid [MPA], the “inhibition of type 2 isoform of IMPDH” value is listed as “potent, selective, non-competitive inhibitor”.
